Assay results as given in patent publication US12029739B2, “SHP2 inhibitor and use thereof” (KANAPH THERAPEUTICS INC., priority 2021, dated 2024).

Protein sequences, listed by entry. Tags and fused reporters are not part of them.
UniProt Q06124, whole entry: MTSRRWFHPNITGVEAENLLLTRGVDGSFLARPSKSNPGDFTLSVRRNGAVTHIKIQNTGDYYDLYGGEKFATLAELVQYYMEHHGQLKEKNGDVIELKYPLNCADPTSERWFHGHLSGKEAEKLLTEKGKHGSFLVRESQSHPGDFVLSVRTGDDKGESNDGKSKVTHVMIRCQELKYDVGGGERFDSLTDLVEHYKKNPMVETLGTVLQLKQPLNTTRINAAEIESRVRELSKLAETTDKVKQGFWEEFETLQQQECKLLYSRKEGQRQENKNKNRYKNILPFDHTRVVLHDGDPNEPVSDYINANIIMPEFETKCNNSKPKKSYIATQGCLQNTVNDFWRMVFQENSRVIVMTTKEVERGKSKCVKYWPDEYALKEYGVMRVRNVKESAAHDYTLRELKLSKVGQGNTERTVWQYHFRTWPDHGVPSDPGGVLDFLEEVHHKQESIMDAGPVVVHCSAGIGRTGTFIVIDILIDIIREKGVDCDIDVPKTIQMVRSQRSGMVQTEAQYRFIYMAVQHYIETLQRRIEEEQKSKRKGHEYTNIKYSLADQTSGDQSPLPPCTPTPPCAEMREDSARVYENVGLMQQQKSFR

Legend:
SHP2 (full length) = SHP2 (full length) (Homo sapiens, UniProt Q06124); assay: Phosphatase assay (PTPase assay) with DiFMUP substrate; assay type: biochemical; settings: read-out: IC50 (PTPase aS say); SHP2 activated with SHP2 activating peptide; DiFMUP 80 μM, 2 hours; fluorescence
[1] = tested on: phospho-ERK in MIA PaCa2 or H358 cells; assay: Phospho-ERK assay (AlphaLisa); assay type: cell-based; settings: read-out: IC50 (p-ERK), compound incubated 1.5 hours

Question: C[C@@H]1OCC2(CCN(c3cnc4c(Sc5ccc6ncn(CC7CCOC7)c(=O)c6c5Cl)n[nH]c4n3)CC2)[C@@H]1N (some centres unmarked) was tested. Which IC50 (SHP2 (full length)) did it give?
Answer: The IC50 was under 3 nM.

Question: And the IC50 [1]?
Answer: The IC50 was 45 to 1500 nM.
